Data reported in PMC11612315, “GLP-1 and its derived peptides mediate pain relief through direct TRPV1 inhibition without affecting thermoregulation” (Experimental & Molecular Medicine, 2024).

Protein sequences, listed by entry. Tags and fused reporters are not part of them.
UniProt Q8NER1, whole entry: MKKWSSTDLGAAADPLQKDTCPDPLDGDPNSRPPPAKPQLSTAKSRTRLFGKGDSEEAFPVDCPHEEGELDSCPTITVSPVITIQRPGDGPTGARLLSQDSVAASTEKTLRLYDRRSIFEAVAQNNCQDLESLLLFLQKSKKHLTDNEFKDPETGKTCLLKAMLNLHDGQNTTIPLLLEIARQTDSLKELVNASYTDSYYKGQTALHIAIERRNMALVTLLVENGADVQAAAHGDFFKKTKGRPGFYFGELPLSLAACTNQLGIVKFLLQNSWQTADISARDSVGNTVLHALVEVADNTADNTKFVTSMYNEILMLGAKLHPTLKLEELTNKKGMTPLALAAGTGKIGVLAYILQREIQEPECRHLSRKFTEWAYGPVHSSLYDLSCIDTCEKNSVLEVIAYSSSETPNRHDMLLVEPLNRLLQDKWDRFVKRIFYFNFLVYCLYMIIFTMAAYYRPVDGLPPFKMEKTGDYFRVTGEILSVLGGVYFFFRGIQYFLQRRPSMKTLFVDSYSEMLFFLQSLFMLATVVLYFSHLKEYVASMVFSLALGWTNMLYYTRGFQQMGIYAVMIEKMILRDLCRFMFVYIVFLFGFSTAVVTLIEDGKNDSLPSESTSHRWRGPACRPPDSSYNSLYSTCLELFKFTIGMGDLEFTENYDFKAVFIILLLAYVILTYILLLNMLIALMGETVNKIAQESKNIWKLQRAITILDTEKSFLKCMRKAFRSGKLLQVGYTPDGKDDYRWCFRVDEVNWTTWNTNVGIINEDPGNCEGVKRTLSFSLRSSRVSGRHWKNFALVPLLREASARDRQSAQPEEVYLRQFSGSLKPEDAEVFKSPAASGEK

Molecular target: T1, human TRPV1 (Homo sapiens, UniProt Q8NER1)
T1 construct: expressed in transfected cells
Assay: Ca2+ imaging in CHO K1 cells expressing human TRPV1, CAP-induced
Format: cell-based

GLP-1(7–36)
LogIC50 (CAP 100 nM, text in picture Fig. 5h): 2.252
IC50 (read-out: IC50 for the calcium response, CAP 100 nM, logistic fit, ± Std. Error): 179 nM
